Assay results published in US20250034099A1, “BENZOXAZINONE DERIVATIVES” (CHIA TAI TIANQING PHARMACEUTICAL GROUP CO., LTD., priority 2021, published 2025).

Sequences of proteins named here, by UniProt entry; tags and fusion partners are left off. Residues count along the entry.
UniProt P08235, 726-984 limits assumed: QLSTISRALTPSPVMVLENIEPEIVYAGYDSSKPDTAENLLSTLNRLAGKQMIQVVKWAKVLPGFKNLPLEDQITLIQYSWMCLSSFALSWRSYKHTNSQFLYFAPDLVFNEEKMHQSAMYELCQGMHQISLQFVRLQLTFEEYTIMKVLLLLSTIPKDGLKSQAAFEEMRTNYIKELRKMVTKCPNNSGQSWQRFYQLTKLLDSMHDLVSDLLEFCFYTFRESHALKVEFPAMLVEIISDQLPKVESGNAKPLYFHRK

Target: MR (Homo sapiens, UniProt P08235)
Experiment: In vitro evaluation of MR antagonistic activity (HEK293/Gal4/MR cell line, Bright Glo)
Details: read-out: IC50 (nM) for MR; HEK293/Gal4/MR cells, aldosterone final 1 nmol, 24 h incubation

| IC50 [nM] | SMILES |
| --- | --- |
| 372 | CNC(=O)CC1COc2cc(F)ccc2N1Cc1cc(C)c2c(c1)NC(=O)CO2 (centres unmarked) |
| 80 | Cc1noc(CC2COc3cc(F)cc(F)c3N2Cc2ccc3c(c2)NC(=O)CO3)n1 (single isomer, unassigned) |
